ChEMBL document CHEMBL2176911 (J Med Chem, 2012)

The chains behind the UniProt entries cited, without tags or fusion partners. Where a name states a change or a piece, a line headed by the entry shows the natural chain unless it says otherwise.
UniProt Q00535, whole entry: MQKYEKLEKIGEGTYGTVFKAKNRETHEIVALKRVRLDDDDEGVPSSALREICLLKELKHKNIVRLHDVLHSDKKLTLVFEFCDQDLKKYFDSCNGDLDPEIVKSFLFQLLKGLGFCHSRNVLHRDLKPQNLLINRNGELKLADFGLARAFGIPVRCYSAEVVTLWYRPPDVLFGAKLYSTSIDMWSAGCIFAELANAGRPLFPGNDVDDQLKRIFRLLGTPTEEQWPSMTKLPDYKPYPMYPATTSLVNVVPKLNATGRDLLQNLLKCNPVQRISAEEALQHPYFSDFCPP
UniProt O35493: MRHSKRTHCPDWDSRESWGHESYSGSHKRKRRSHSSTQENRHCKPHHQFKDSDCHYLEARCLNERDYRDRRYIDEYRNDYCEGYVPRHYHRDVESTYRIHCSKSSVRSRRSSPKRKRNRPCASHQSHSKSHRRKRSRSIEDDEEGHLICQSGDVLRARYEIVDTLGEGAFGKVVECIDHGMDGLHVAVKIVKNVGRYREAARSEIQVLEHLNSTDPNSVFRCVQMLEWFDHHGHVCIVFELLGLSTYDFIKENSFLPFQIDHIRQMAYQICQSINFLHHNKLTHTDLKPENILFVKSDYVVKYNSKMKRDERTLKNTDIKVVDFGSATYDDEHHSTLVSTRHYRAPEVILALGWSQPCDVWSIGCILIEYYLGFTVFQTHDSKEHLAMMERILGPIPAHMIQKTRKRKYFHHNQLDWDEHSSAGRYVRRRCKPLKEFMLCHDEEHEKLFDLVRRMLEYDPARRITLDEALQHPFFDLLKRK
UniProt P49759: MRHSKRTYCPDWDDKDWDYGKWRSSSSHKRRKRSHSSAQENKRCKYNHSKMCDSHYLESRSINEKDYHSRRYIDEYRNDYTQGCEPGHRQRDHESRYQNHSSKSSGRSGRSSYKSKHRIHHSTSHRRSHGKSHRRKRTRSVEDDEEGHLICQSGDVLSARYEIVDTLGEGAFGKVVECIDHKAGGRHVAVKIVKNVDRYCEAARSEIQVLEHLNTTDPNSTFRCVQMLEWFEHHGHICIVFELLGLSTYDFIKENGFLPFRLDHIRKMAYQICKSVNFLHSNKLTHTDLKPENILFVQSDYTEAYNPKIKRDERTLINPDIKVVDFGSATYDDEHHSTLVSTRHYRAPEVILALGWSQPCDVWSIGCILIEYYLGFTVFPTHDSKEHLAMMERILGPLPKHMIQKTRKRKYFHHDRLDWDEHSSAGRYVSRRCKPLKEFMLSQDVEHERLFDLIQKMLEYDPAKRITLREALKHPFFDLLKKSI
UniProt P49760, whole entry: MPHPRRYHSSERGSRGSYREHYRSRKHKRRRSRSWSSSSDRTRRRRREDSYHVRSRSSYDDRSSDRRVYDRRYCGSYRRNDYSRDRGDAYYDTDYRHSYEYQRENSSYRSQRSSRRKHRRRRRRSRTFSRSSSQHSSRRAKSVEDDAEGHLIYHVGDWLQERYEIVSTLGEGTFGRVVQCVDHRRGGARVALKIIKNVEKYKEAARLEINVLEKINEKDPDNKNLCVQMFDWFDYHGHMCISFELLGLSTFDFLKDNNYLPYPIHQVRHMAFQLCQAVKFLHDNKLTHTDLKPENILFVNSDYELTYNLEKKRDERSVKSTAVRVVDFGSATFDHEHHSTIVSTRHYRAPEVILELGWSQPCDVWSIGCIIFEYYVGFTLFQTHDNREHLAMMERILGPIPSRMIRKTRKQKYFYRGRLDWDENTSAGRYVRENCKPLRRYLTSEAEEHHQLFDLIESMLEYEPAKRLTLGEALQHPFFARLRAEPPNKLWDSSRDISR

Tests used:
[1] = target: Cyclin-dependent kinase 5/CDK5 activator 1 (Homo sapiens, UniProt Q00535); experiment: Inhibition of human recombinant CDK5/p25 using histone H1 as substrate and [gamma33P]ATP after 30 mins by scintillation counting; format: protein-complex assay
[2] = target: Dual specificity protein kinase CLK4 (Mus musculus, UniProt O35493); experiment: Inhibition of mouse recombinant GST-tagged CLK4 expressed in Escherichia coli using GRSRSRSRSRSR as substrate and [gamma33P]ATP after 30 mins by scintillation counting
Procedure, shortened: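 Panel of purified kinases (recombinant from several species plus native enzymes), each assayed radiometrically over a range of inhibitor concentrations; IC50 in μM calculated from the dose-response curves.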

[3] = target: Dual specificity protein kinase CLK1 (Homo sapiens, UniProt P49759); experiment: Binding affinity to CLK1
[4] = target: T1, Dual specificity tyrosine-phosphorylation-regulated kinase 3 (Homo sapiens, UniProt O43781); experiment: Inhibition of human recombinant GST-tagged DYRK3 expressed in Escherichia coli using GRSRSRSRSRSR as substrate and [gamma33P]ATP after 30 mins by scintillation counting
T1 sequence (O43781 whole entry): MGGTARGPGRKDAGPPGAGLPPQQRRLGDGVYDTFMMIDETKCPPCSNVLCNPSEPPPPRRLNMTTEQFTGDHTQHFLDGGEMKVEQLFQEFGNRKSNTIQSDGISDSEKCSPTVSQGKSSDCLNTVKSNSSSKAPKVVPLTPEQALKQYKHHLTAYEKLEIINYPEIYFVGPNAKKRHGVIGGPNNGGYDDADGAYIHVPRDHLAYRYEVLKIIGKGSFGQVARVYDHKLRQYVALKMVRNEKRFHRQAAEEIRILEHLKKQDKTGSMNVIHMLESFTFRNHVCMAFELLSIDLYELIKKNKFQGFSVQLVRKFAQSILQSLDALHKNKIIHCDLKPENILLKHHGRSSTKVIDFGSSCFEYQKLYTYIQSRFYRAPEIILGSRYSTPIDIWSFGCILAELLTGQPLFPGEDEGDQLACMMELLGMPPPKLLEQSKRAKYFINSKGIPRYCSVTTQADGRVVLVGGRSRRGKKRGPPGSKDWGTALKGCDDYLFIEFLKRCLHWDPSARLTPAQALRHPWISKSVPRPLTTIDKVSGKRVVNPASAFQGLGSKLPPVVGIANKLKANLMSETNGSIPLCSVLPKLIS

[5] = target: Dual specificity protein kinase CLK2 (Homo sapiens, UniProt P49760)

SMILES | IC50 [1] | IC50 [2] | Kd [3] | IC50 [4] | Kd [5]
COc1ccc2c(c1)[nH]c1c(C)nccc12 [HARMINE] | 8000 nM | – | – | – | –
O=C1NC(Nc2ccccc2)=N/C1=C\c1ccc2c(c1)OCO2 | – | 64 nM | 75 nM | 320 nM | 360 nM
